# Assay results taken from PubChem BioAssay AID720648 (The Scripps Research Institute Molecular Screening Center, 2013).
# By UniProt entry, the sequences of proteins in these tests, tags left out. Where a name states a change or a piece, a line headed by the entry shows the natural chain unless it says otherwise.
# UniProt P78536: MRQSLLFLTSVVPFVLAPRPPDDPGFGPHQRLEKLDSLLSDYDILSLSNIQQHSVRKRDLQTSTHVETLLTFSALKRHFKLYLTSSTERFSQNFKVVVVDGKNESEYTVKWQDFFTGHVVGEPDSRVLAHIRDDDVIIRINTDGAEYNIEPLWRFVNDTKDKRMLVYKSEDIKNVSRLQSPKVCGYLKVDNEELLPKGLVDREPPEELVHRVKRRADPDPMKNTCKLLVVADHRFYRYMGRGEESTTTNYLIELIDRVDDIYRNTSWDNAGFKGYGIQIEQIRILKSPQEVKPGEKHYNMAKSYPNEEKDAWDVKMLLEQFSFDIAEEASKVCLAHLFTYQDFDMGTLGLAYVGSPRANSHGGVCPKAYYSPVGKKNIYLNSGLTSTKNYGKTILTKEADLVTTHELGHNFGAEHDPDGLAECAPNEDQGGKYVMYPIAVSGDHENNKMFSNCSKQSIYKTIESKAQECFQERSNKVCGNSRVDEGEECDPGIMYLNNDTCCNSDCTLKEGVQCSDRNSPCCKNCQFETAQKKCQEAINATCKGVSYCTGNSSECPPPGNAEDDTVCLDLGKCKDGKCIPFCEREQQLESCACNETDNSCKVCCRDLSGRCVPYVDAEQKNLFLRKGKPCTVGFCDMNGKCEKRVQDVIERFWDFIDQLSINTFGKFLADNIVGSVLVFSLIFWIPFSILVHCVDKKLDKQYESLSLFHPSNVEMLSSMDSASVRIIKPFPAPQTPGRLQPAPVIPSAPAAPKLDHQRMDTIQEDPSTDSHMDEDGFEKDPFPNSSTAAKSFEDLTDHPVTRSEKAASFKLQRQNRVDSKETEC
# The entries are a selection whose mix differs from that of the whole data set. Calls of active or inactive are those of the source.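 Rule for the calls: active = inhibition above the mean of compounds lying between control limits plus 3 SD, set per campaign (cut at about 8.5% in these data); inactive = the rest.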
# Molecular target: Disintegrin and metalloproteinase domain-containing protein 17 (Homo sapiens) (UniProt P78536)
# Experiment: inhibition of ADAM17 peptide cleavage – biochemical, QFRET, primary screen (AID 720648);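 note: 0% = DMSO-only wells as the low control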
# Details: recombinant ADAM17, EDANS/DABCYL FRET peptide cleavage; at 6.95 µM; hits give high values
row,SMILES,inhibition
1,O=P(Nc1nc2ccccc2s1)(c1ccccc1)c1ccccc1,inactive: -5.4%
2,C[C@H]1OP(=O)(Oc2ccccc2)[C@H](O)[C@H](O)[C@H]1N=[N+]=[N-] (some centres not stated),inactive: -4.66%
3,O=[N+]([O-])c1ncn(CCn2ncnc2[N+](=O)[O-])n1,inactive: -5.04%
4,CC(C)(C)C(=O)NC(Sc1ccncn1)C(Cl)(Cl)Cl (configuration not stated),inactive: -0.47%
5,O=C(O)CNc1ccc([As](=O)(O)O)cc1,inactive: -5.74%
6,O=[N+]([O-])c1cccc(NC2=NCC(CBr)S2)c1 (configuration not stated),inactive: -6.03%
7,COC(=O)C1(C)COP(=O)(Nc2ccccc2)OC1 (configuration not stated),inactive: -5.22%
8,O=P1(N(CCCl)CCCl)OCCCS1 (configuration not stated),inactive: -1.12%
9,O=C(Nc1cc([As](=O)(O)O)ccc1O)c1ccccc1,inactive: 0.68%
10,CCN(/C(=N/P(=O)(N1CCOCC1)N1CCOCC1)N1CCOCC1)c1ccc(OC)cc1,inactive: 2.1%
11,Nc1ccc([As](=O)(O)c2ccc(N)cc2)cc1,inactive: -6.97%
12,C[N+]1=C2C=CC=CC=C2SC12C([N+](=O)[O-])=CC([N+](=O)[O-])=C[C-]2[N+](=O)[O-] (configuration not stated),inactive: 2.44%
13,c1cc(-c2nn[nH]n2)ccc1-c1nn[nH]n1,inactive: -2.09%
14,CC1CCN(C(=O)Oc2c(Cl)cc(Cl)c3cccnc23)CC1,inactive: -1.62%
15,CC(C)=N/N=C(\N)N[N+](=O)[O-],inactive: 0.86%
16,CC(C)c1nc(Nc2ccccc2)n(P(=O)(N(C)C)N(C)C)n1,inactive: 1.75%
17,CN(C)C(=O)OCCc1n(C)cc[n+]1C,inactive: -0.79%
18,COc1ccc(C2=NCC(CBr)S2)cc1 (configuration not stated),inactive: -5.63%
19,Cc1ccc(NP(=O)(Oc2ccccc2)Oc2ccccc2)nc1,inactive: -7.4%
20,CCc1nc2c(n1)c1c(non1O)c1c2no[n+]1[O-],inactive: -3.05%
21,O=[N+]([O-])c1cc([N+](=O)[O-])c(CCNc2ccccc2)c([N+](=O)[O-])c1,active: 9.95%
22,O=[N+]([O-])c1cccc2n[nH]nc12,inactive: -2.61%
23,CC(=O)N1C2C3N(C(C)=O)C1C1N(C(C)=O)C(C(N1C(C)=O)N3C(C)=O)N2C(C)=O,inactive: 1.2%
24,Oc1ccccc1CNc1ccccn1,inactive: -3.22%

row,SMILES,inhibition
1,O=C(NC(Sc1ccncn1)C(Cl)(Cl)Cl)c1ccccc1 (configuration not stated),inactive: 0.31%
2,CC(C)CC(=O)NC(Sc1ccc(Cl)cc1)C(Cl)(Cl)Cl (configuration not stated),inactive: -1.78%
3,Nc1cc(N)c2nonc2c1[N+](=O)[O-],inactive: -1.47%
4,CN(C(=O)Cc1ccc(Cl)c(Cl)c1)[C@H]1CCCC[C@H]1N1CCCC1,inactive: 4.18%
5,Cc1ccc(N/C(=N/P(=O)(N2CCOCC2)N2CCOCC2)N2CCOCC2)cc1,inactive: -2.73%
6,NC(=O)c1cc([N+](=O)[O-])cc([N+](=O)[O-])c1N,inactive: 2.53%
7,Clc1ccc(Cl)c(NC2=NCC(CBr)S2)c1 (configuration not stated),inactive: -3.03%
8,CN1CCCC(OC(=O)C(c2ccccc2)c2ccccc2)C1 (configuration not stated),inactive: -1.48%
9,COc1ccccc1OP(=O)(Nc1ccc(C)cn1)Oc1ccccc1OC,inactive: -4.04%
10,Cc1ccc(OP(=O)(Nc2nccs2)Oc2ccc(C)cc2)cc1,inactive: -3.06%
11,Nc1cccc2ccc([As](=O)(O)O)cc12,inactive: -160%
12,CN(C(=O)Cc1ccccc1)C1CC[C@@]2(CCCO2)C[C@@H]1N1CCCC1 (some centres not stated),inactive: -0.42%
13,CCN(N=Nc1nonc1N)c1nonc1N,inactive: 3.2%
14,CN(C)P(=O)(N(C)C)n1c(Nc2ccccc2)nnc1-c1ccccc1,inactive: 0.19%
15,O=P(Nc1nc2ccc(Cl)cc2s1)(c1ccccc1)c1ccccc1,inactive: 5.14%
16,O=C(O)c1ccccc1[As](=O)(O)O,inactive: -0.16%
17,CC(=O)Nc1ccc([As](=O)(O)O)cc1,inactive: -5.72%
18,CCCC1OP(N)(=O)OCC1CC (configuration not stated),inactive: -1.69%
19,CCn1c(=O)n(C2CCN(CC3CCCCCCC3)C[C@H]2CO)c2ccccc21 (some centres not stated),inactive: 0.55%
20,CCOP(=O)(Nc1ccccc1)OCC,inactive: 2%
21,Cc1cc(SC(NC(=O)c2ccc(F)cc2)C(Cl)(Cl)Cl)ncn1 (configuration not stated),inactive: -2.45%
22,Cc1ccc(NP(=O)(Oc2ccccc2F)Oc2ccccc2F)nc1,inactive: -3.23%
23,CN(C(=O)Cc1ccc(Cl)c(Cl)c1)[C@H]1CCCC[C@@H]1N1CCCC1,inactive: -9.09%
